# Values of other authors as cited in patent publication EP4154876B1, “CBX7 INHIBITOR FOR USE IN THE TREATMENT AND/OR PREVENTION OF A BLOOD VESSEL DISORDER” (Universität Potsdam, priority 2021, dated 2023).
# pKd: −log10 of the molar value.
# Target: T1, chromodomains of CBX4 (Homo sapiens, UniProt O00257)
# T1 sequence (O00257 11-69 limits assumed): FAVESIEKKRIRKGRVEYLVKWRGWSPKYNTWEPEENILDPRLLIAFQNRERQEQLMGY
# Settings: CBX4 chromodomain; cited from earlier work
structure (smiles),measurement,value
CCN(CC)CCCC[C@H](NC(=O)[C@H](CC(C)C)NC(=O)[C@H](C)NC(=O)[C@H](Cc1ccccc1)NC(=O)c1ccc(C(C)(C)C)cc1)C(=O)N[C@@H](CO)C(=O)OC [UNC3866],pKd,~7.00
